Measurements taken from patent US12187719B2, “Proteolysis targeting chimera (PROTACS) as degraders of SMARCA2 and /or SMARCA4” (Boehringer Ingelheim International GmbH, priority 2018, dated 2025).

Protein sequences, listed by entry. Tags and fused reporters are not part of them.
UniProt P51532, whole entry: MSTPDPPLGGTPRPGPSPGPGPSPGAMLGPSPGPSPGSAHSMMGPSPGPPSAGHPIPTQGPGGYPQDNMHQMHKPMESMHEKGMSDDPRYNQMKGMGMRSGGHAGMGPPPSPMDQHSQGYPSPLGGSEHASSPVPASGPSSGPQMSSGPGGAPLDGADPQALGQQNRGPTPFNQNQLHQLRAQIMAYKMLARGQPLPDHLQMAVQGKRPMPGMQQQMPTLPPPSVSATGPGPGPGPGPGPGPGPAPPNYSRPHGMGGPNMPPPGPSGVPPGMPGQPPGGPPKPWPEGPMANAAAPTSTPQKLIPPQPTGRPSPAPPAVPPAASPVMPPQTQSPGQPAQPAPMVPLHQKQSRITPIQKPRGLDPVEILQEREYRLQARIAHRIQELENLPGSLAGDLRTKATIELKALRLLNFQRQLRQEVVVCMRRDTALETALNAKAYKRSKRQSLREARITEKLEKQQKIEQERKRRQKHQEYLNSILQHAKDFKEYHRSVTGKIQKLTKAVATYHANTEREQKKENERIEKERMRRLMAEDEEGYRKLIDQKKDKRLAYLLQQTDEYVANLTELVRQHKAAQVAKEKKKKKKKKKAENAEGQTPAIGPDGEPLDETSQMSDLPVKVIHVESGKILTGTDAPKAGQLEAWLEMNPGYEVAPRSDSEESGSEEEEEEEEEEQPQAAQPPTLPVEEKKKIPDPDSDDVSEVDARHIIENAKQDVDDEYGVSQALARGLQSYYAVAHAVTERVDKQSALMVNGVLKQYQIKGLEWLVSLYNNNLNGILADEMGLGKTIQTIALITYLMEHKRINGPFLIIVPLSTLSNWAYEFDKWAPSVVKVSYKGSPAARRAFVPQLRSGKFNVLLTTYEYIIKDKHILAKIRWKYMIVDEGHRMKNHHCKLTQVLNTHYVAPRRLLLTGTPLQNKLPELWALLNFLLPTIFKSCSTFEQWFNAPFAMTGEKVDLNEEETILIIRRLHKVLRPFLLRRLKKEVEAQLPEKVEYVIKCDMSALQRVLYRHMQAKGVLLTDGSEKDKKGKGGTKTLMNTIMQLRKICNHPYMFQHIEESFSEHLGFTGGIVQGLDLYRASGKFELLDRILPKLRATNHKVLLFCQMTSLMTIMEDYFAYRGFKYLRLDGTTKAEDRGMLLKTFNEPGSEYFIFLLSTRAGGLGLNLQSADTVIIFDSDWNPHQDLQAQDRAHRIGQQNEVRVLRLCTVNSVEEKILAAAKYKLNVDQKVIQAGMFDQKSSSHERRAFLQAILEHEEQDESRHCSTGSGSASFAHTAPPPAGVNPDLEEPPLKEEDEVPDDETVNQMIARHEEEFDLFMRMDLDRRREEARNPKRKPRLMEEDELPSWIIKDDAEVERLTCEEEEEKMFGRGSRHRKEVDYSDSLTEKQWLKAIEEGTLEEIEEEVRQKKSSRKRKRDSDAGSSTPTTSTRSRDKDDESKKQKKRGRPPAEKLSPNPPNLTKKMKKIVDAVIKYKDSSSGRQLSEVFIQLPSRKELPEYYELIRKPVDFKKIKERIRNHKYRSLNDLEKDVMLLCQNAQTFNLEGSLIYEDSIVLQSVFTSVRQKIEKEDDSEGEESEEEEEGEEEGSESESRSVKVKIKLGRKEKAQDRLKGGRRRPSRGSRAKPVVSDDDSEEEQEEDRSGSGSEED

Molecular target: T1, SMARCA4 (Homo sapiens, UniProt P51532)
T1 construct: endogenous in cells; host or cells: A549 (NSCLC) cells with SMARCA4 mutation corrected to wild type
Assay: Protein degradation assay in A549 cells, SMARCA4 levels by WES capillary electrophoresis
Type: cell-based
Conditions: A549 (NSCLC) cells with SMARCA4 mutation corrected to wild type; 18 h incubation; concentration at which half maximal degradation is achieved; normalised to GAPDH
Description: For the protein degradation assay, A549 (NSCLC) cells are used in which the inactivating SMARCA4 mutation has been corrected to wild type, such that the cells express both SMARCA2 and SMARCA4. 35000 cells in F12K Medium +10% FBS (100 μL/well) are seeded in a Greiner 96 well F-bottom plate and incubated at 37° C. overnight. Compounds are added from DMSO stock solution using ECHO Access™ workstation or HP D300 Digital Dispenser and cells are incubated at 37° C. for 18 h. Medium is removed, cells are washed with PBS, PBS is removed and 30 μL cold Lysis Buffer (1% Triton, 350 mM KCl, 10 mM Tris, Halt Phosphatase-Protease Inhibitors, 10 mM DTT, Benzonase 0.5 μL/mL) is added to each well. Cells are lysed for 20 min at 4° C. on a bioshake at 800 rpm before insoluble debris is pelleted by centrifugation for 20 min at 4000 rpm at 4° C. The supernatant is transferred to a fresh PCR plate. SMARCA2 levels are determined on a WES capillary electrophoresis instrument (Proteinsimple) using rabbit anti-SMARCA2 antibody (1:25, Sigma #HPA029981), SMARCA4 antibody (CellSignaling #49360, 1:25), PBRM1 antibody (Bethyl #A301-591A-M, 1:40) and anti-GAPDH antibody (1:100, Abcam #ab9485) for normalization.
The compounds 1-1 to 1-18 according to the invention have been tested in the above described assay. […]

DC50: 1930 nM
SMILES: Cc1ncsc1-c1ccc(CNC(=O)[C@@H]2C[C@@H](O)CN2C(=O)[C@@H](NC(=O)C2(F)CC2)C(C)(C)C)c(OCCOCCOCCN2CCN(c3cc(-c4ccccc4O)nnc3N)CC2)c1 [Compound I-5]
